# Where two headings read alike, the source gives them in different places.
# Columns and labels:
# [1] = single dose MVC 300 mg, cited from earlier work
# [2] = MVC dosed in combination with saquinavir/ritonavir (SQV/r); cited from earlier work
# Safety and tolerability = assay type: in vivo, human; settings: healthy volunteers
# [3] = assay type: in vivo, human
# [4] = mild (Child-Pugh class A) hepatic impairment
# [5] = moderate (Child-Pugh class B) hepatic impairment
substance,measurement,setting,value
Maraviroc [MVC],Cmax greater relative to subjects with normal hepatic function,[1]; [4],11%
same,Geometric mean AUClast greater relative to subjects with normal hepatic function,[1]; [4],25%
same,Cmax greater relative to subjects with normal hepatic function,[1]; [5],32%
same,Geometric mean AUClast greater relative to subjects with normal hepatic function,[1]; [5],46%
same,Increase in MVC exposures,[2],9.77 fold
same,Postural hypotension or dizziness,Safety and tolerability; MVC coadministered with BOC or TVR,No postural hypotension or dizziness was reported
same,AE incidence,Safety and tolerability; during treatment,43%
same,"MVC C12, geometric mean (%CV)","[3]; MVC 150 mg BID + BOC 800 mg TID, day 10, N = 14",66.1 ng/mL
same,"MVC C12, geometric mean (%CV)","[3]; MVC 150 mg BID + TVR 750 mg TID, day 10, N = 13",235.5 ng/mL
same,"MVC C12, geometric mean (%CV)","[3]; MVC 150 mg BID alone, day 5, N = 14",23.8 ng/mL
same,MVC average concentration (Cavg),[3]; MVC 150 mg BID in the presence of BOC,151 ng/mL
same,MVC average concentration (Cavg),[3]; MVC 150 mg BID in the presence of TVR,474 ng/mL
same,"MVC Tmax, median (range)",[3]; MVC administered alone,"2.0 (range, 1.0–6.0) hours"
same,"MVC Tmax, median (range)",[3]; MVC administered with BOC,"2.0 (range, 0.5–3.0) hours"
same,"MVC Tmax, median (range)",[3]; MVC given with TVR,"3.0 (range, 2.0–4.0) hours"
same,MVC C12 fold higher,[3]; MVC plus BOC compared with MVC alone,approximately 3 fold
same,MVC C12 fold higher,[3]; MVC plus TVR compared with MVC alone,approximately 10 fold
same,Increase of MVC plasma exposure (based on AUC12 and Cmax),[3]; in the presence of TVR versus MVC alone,8- to 9 fold

# From PMC3984012 (Journal of Acquired Immune Deficiency Syndromes (1999), 2014)
